Growth rescue (activation) data for 32 compounds are collected here from PubChem BioAssay AID652106 (National Center for Advancing Translational Sciences (NCATS), 2013).

Only a part is listed here, and it is no random draw. Activity calls are given as the source filed them. Calls follow the shape of the dose curve; as a rule, active = well fitted activation curve with a large enough effect; inconclusive = small, poorly fitted or top-dose-only effect; inactive = no such curve, though single readings can be large or run the other way.

This assay is described as follows: qHTS of alpha-syn Inhibitors. Also: % of control where 0% means no effect; nearly all actives have a fitted effect of over 65% in size. The settings on record: Yeast expressing alpha-synuclein, BacTiter-Glo, 24 h; at 46.1 µM (top of the series) unless noted. The source says: The goal of this project is to identify new chemical probes capable of reversing the toxicity associated with the Parkinson disease-related protein, alpha-synuclein. Compounds will be selected on their ability to restore growth in yeast cells expressing toxic levels of alpha-synuclein. These compounds will provide a complementary approach to deciphering the tangled mechanisms of toxicity and protection that we have uncovered through genome-wide genetic screens and are beginning to uncover in a large-scale proteomics analysis with mass spectroscopy. To this end, a miniaturized assay was developed to be screened against the Molecular Libraries Small Molecule Repository (MLSMR) to discover alpha-synuclein inhibitors. Please note that in the set-up this yeast-based assay compounds that inhibit as alpha-syn, have a read-out as activators. NIH Chemical Genomics Center [NCGC] NIH Molecular Libraries Probe Centers Network [MLPCN] MLPCN Grant: NS060957 Assay Submitter (PI): Susan Lindquist, Whitehead Institute/MIT
Dispense 2.5 microL yeast galactose medium per 1536-well plate, pin compound, dispense 2.5 microL alpha-synuclein expressing yeast in galactose medium at OD600=0.02 (pregrown in raffinose medium to mid-log phase) per well, incubate for 24 hr at 30 deg C, and cell growth will be measured using 5 microL of Bactiter/Glo reagent to entire plate and read using Luminescence Protocol in ViewLux.
On the technique in general: qHTS replaces the single test concentration by a dilution series.
For `CCCCOc1ccc(C(=O)NCC2(N3CCOCC3)CCCCC2)cc1`, the growth rescue (activation) is inactive: 5.72%. On to `CCCCn1nnnc1C(c1cc2ccccc2o1)N1CCC(n2c(=O)[nH]c3ccccc32)CC1` (configuration not stated), for which the growth rescue (activation) is inactive: 6.39%. As to `O=P1(N(CCCl)CCCl)SCCCS1`, the growth rescue (activation) is inactive: -1.18%.

With `CCOc1ccc(C)cc1CN(CCCl)CCCl`, the growth rescue (activation) is inactive: -3.1%.

Consider `O=C1CCN(Cc2ccccc2)CC1`, for which the growth rescue (activation) was inactive: -3.13%.

With `O=C(NCC1(N2CCOCC2)CCCCC1)c1ccc(Cl)cc1`, the growth rescue (activation) is inactive: 2.39%. The same measure for `CC(C)(C)n1nnnc1C(c1ccccc1)N1CCC(n2c(=O)[nH]c3ccccc32)CC1` (configuration not stated): inactive: -5.55%; for `O=c1[nH]c2ccccc2n1C1CCN(C(c2cccc3ccccc23)c2nnnn2C2CCCC2)CC1` (configuration not stated): inactive: 9.09%. For the compound `COc1cc(C(=O)NCC2(N(C)C)CCCCC2)ccc1OC(F)F`, the growth rescue (activation) was inactive: -13.9%. The same measure for `CCOC(=O)N1CCC(Nc2cccc(C)c2)CC1`: inactive: 6.76%. The same measure for `O=c1[nH]c2ccccc2n1C1CCN(C(c2ccccc2)c2nnnn2C2CCCCC2)CC1` (configuration not stated): inactive: 2.67%. For the compound `Cc1cccc(NC2(C#N)CCN(Cc3ccccc3)CC2)c1`, the growth rescue (activation) is inactive: 8.85%. With `CSc1ccccc1C(=O)NCC1(N2CCCCC2)CCCCC1` the figure was inactive: -5.23%.

As for `CCCCn1nnnc1C(c1cccs1)N1CCC(n2c(=O)[nH]c3ccccc32)CC1` (configuration not stated), the growth rescue (activation) is inactive: -0.324%. Take `CCCCn1nnnc1C(CC)N1CCC(n2c(=O)[nH]c3ccccc32)CC1` (configuration not stated): the growth rescue (activation) was inactive: 3.97%. With `O=C(NCC1(N2CCCCC2)CCCCC1)c1cccs1` the figure was inactive: -1.86%. Regarding `O=C(NCC1(N2CCCCC2)CCCCC1)c1ccc(=O)[nH]c1`, the growth rescue (activation) was inactive: -0.468%. With `CCC(c1nnnn1C1CCCC1)N1CCC(n2c(=O)[nH]c3ccccc32)CC1` (configuration not stated) the figure was inactive: -0.288%; with `COc1ccc(C(=O)NCC2(N3CCCCC3)CCCCC2)c(OC)c1OC`, inactive: -7.81%; with `CC(C)(C)OC(=O)N1CCC(N(C(=O)c2ccccc2)c2ccc(F)cc2)CC1`, inactive: 9.57%. The same measure for `COc1ccc(C(=O)NCC2(N3CCCCC3)CCCCC2)cc1`: inactive: 0.711%; for `CCCCn1nnnc1C(c1ccc(OC)cc1)N1CCC(n2c(=O)[nH]c3ccccc32)CC1` (configuration not stated): inactive: 0.606%. As for `CCOC(=O)N1CCC(Nc2ccc(OC)cc2)CC1`, the growth rescue (activation) was inactive: -4.2%. With `O=C1C(O)=C([N+](=O)[O-])C(=O)C(O)=C1[N+](=O)[O-]` the figure was inactive: 0.97%; with `COc1ccc(Cl)cc1C(=O)NCC1(N2CCOCC2)CCCCC1`, inactive: -0.293%. Consider `O=c1[nH]c2ccccc2n1C1CCN(C(c2cc3ccccc3o2)c2nnnn2C2CCCCC2)CC1` (configuration not stated), for which the growth rescue (activation) is inactive: 20.1%. With `O=C(OC1CN2CCC1CC2)C1c2ccccc2Oc2ccccc21` (configuration not stated) the figure was inactive: 11.8%. As for `O=C(NCC1(N2CCCCC2)CCCCC1)c1ccc(Cl)s1`, the growth rescue (activation) was inactive: -5.66%.

With `N#CC1(Nc2ccccc2)CCN(Cc2ccccc2)CC1`, the growth rescue (activation) was inactive: -11.7%.

For `O=C(NCC1(N2CCOCC2)CCCCC1)c1cc2ccccc2o1`, the growth rescue (activation) was inactive: 6.49%. Take `Cc1cc(C)cc(N(C(=O)c2ccccc2)C2CCN(C(=O)OC(C)(C)C)CC2)c1`: the growth rescue (activation) is inactive: 1.57%. Turning to `O=C(NCC1(N2CCCCC2)CCCCC1)c1ccc(Cl)nc1`, the growth rescue (activation) was inactive: -6.87%.
